The list shows a part of the results, in another mix than the full data. The source made the active and inactive calls.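 Rule for the calls: active = activation above the mean activation of all tested compounds plus 3 SD (cut at about 50% in these data); inactive = the rest.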

Protein sequences, listed by entry. Tags and fused reporters are not part of them.
UniProt Q13285, whole entry: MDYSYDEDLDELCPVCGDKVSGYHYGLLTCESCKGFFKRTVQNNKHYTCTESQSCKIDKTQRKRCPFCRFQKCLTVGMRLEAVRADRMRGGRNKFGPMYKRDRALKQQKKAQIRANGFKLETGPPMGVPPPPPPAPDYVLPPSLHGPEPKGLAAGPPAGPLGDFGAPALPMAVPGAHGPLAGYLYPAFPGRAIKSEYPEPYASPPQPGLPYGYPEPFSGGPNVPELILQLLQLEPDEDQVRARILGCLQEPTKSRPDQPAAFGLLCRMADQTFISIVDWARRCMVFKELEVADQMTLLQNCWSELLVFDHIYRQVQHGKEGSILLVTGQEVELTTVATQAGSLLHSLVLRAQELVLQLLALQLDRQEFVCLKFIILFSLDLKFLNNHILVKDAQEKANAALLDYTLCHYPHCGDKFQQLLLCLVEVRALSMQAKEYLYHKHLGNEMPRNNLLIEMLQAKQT

The record followed here is PubChem BioAssay AID522 (The Scripps Research Institute Molecular Screening Center, 2006).

The test addresses Steroidogenic factor 1 (Homo sapiens) (UniProt Q13285). In words: SF-1 ligand-binding domain transactivation enhancers – cell-based, CHO-K1, Gal4-SF-1 LBD, luciferase luminescence, primary screen (AID 522). The following applies: CHO-K1 Gal4-SF-1 LBD luciferase reporter; at 10 µM; stronger effect = higher value; % increase over DMSO SF-1-specific signal. Put shortly: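 material = CHO-K1 cells with Gal4–hSF-1 LBD chimera plus Gal4-driven luciferase | compound = 10 µM single point, 1% DMSO | incubation = 20 h compound exposure at 37 °C after 1 h cell settling | measured by = SteadyLite luciferase luminescence | evaluation = percent activation relative to DMSO median and mock-transfected background | control set = DMSO negative control and −SF1 background wells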
(A reporter such as luciferase makes a cellular process visible.)
For the molecule `O=C(OC1CN2CCC1CC2)C1c2ccccc2Oc2ccccc21` (configuration not stated), the activation was inactive: 13.6%. Turning to `COc1ccc(NC2CCN(CCc3ccccc3)CC2)c(OC)c1`, the activation is inactive: -13.4%. Regarding `N#CC1(Nc2ccccc2)CCN(CCc2ccccc2)CC1`, the activation was inactive: -12.6%. Turning to `N/C(=N\O)c1c(N)no[n+]1[O-]`, the activation was inactive: 2.4%. `Fc1ccccc1NC1CCN(Cc2ccccc2)CC1`: the activation was inactive: -11.3%. In the case of `CCC(CO)(C(=O)OC1CN2CCC1CC2)c1ccccc1` (configuration not stated), the activation was inactive: 10.4%. Next, `CCOc1ncccc1C(=O)NCC1(N2CCOCC2)CCCCC1`: inactive: 4.3%.
